Consider two compounds from patent US9611262B2, “Substituted 2-azabicycles and their use as orexin receptor modulators” (JANSSEN PHARMACEUTICA NV, priority 2014, dated 2017).

Sequences of proteins named here, by UniProt entry; tags and fusion partners are left off.
UniProt O43614, whole entry: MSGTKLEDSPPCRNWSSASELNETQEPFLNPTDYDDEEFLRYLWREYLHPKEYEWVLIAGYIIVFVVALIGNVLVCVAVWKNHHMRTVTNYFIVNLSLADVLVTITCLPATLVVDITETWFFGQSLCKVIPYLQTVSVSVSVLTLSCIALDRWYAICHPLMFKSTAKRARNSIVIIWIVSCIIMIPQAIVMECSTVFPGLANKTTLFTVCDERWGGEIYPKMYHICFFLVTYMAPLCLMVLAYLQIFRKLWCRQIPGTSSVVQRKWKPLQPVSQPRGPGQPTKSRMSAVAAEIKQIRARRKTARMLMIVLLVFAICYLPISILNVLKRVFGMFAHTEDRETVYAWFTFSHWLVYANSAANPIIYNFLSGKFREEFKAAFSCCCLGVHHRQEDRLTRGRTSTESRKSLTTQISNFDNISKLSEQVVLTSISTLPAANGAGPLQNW
UniProt O43613, whole entry: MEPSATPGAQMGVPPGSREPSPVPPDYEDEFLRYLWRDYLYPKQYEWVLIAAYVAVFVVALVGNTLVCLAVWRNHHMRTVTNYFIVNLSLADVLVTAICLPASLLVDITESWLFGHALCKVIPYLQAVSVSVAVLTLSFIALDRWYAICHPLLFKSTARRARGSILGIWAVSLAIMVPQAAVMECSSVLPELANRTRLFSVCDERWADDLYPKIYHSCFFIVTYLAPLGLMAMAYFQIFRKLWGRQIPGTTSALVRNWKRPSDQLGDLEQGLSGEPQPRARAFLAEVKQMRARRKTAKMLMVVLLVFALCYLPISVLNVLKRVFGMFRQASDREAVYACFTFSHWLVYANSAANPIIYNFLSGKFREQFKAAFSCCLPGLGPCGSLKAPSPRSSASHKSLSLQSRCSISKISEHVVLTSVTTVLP

In general, Ki refers to the equilibrium dissociation constant of an inhibitor or competing ligand from its target.

One assay addresses human orexin 2 receptor (Homo sapiens (Human), UniProt O43614). Nature of the assay: Human orexin 2 receptor radioligand binding ([3H]-EMPA competition). The note with it: HEK293 stably expressing human orexin 2 receptor; 2 nM [3H]-EMPA; averages of 2-20 runs; read-out: hOX2 Ki. The procedure:
(§1) The in vitro affinity of the compounds of the invention for the rat/human orexin 1 and human orexin 2 receptors was determined by competitive radioligand binding using [^3H](1-(5-(2-fluoro-phenyl)-2-methyl-thiazol-4-yl)-1-((S)-2-(5-phenyl-(1,3,4)oxadiazol-2-ylmethyl)-pyrrolidin-1-yl)-methanone) (Langmead et al., 2004) and [^3H]EMPA (n-ethyl-2[96-methoxy-pyridin-3-yl)-(toluene-2-sulfonyl)-amino]-N-pyridin-3-ylmethyl acetamide), respectively (Langmead et al., 2004, British Journal of Pharmacology 141:340-346; Malherbe et al., 2004, British Journal of Pharmacology 156:1326-41).
Data are analyzed using pc-Sandy macro and graphed on Graphpad Prism 5. For analysis, each concentration point is averaged from triplicate values and the averaged values are plotted on Graphpad Prism. The IC50 was determined by applying the following equation (GraphPad Prism 5.0, San Diego) for one site competition where X=log (concentration) and Y=specific binding. Top denotes the total [^3H]— (1-(5-(2-fluoro-phenyl)-2-methyl-thiazol-4-yl)-1-((S)-2-(5-phenyl-(1,3,4)oxadiazol-2-ylmethyl)-pyrrolidin-1-yl)-methanone) binding, bottom denotes the nonspecific [^3H]— (1-(5-(2-fluoro-phenyl)-2-methyl-thiazol-4-yl)-1-((S)-2-(5-phenyl-(1,3,4)oxadiazol-2-ylmethyl)-pyrrolidin-1-yl)-methanone) binding. Graphpad Prism calculates Ki value from IC50 and the pre-determined Kd values for [^3H]— (1-(5-(2-fluoro-phenyl)-2-methyl-thiazol-4-yl)-1-((S)-2-(5-phenyl-(1,3,4)oxadiazol-2-ylmethyl)-pyrrolidin-1-yl)-methanone) and [^3H]-EMPA. The Ki for each compound is then uploaded into 3DX. Each run comprises individual compounds in triplicate. The data in Table 1 and Table 2 represent averages from between 2-20 runs
Human Orexin 2 Receptor Radioligand Binding Studies
HEK293 stably expressing human orexin 2 receptor (Genebank accession number NM_001526) were grown to confluency in DMEM (Hyclone, cat # SH30022), 10% FBS, 1× Pen/Strep, 1× NaPyruvate, 10 mM HEPES, 600 μg/ml G418 media on 150 cm^2 tissue culture plates, washed with 5 mM EDTA in PBS (HyClone Dulbecco's Phosphate Buffered Saline 1× with Calcium and Magnesium, Cat # SH30264.01, hereafter referred to simply as PBS) and scraped into 50 ml tubes. After centrifugation (2K×G, 5 min at 4° C.), the supernatant was aspirated and the pellets frozen and stored at −80° C. Cells were resuspended in PBS in the presence of 1 tablet of protease inhibitor cocktail (Roche, Cat. #11836145001) per 50 mL. […] Compounds were solubilized in 100% DMSO (Acros Organics, Cat. #61042-1000) and tested over a range of 7 concentration (from 0.1 nM to 10 μM). The final concentration of DMSO in the reactions is equal to or less than 0.1%. Total and nonspecific binding was determined in the absence and presence of 10 μM almorexant. The total volume of each reaction is 200 μL (20 μL of diluted compounds, 80 μL of [^3H]-EMPA diluted in PBS and 100 μL of the cell suspension). Reactions were run for 60 min at room temperature and terminated by filtration through GF/C filter plates (PerkinElmer, Cat. #6005174) presoaked in 0.3% polyethylenimine using the cell harvester (PerkinElmer Filtermate). The plates were washed 3 times by aspirating 30 ml PBS through the plates. Plates were dried in 55° C. oven for 60 min, scintillation fluid was added, and the radioactivity was counted on a Topcount (Packard).

A further assay has as its target human orexin 1 receptor (Homo sapiens (Human), UniProt O43613). Nature of the assay: Human orexin 1 receptor radioligand binding (competitive). The note with it: CHO cells stably expressing human orexin 1 receptor; 4 nM radioligand; averages of 2-20 runs; read-out: hOX1 Ki. On the procedure:
as §1
(§2) Data are analyzed using pc-Sandy macro and graphed on Graphpad Prism 5. For analysis, each concentration point is averaged from triplicate values and the averaged values are plotted on Graphpad Prism. The IC50 was determined by applying the following equation (GraphPad Prism 5.0, San Diego) for one site competition where X=log (concentration) and Y=specific binding. […] Graphpad Prism calculates Ki value from IC50 and the pre-determined Kd values for [^3H]— (1-(5-(2-fluoro-phenyl)-2-methyl-thiazol-4-yl)-1-((S)-2-(5-phenyl-(1,3,4)oxadiazol-2-ylmethyl)-pyrrolidin-1-yl)-methanone) and [^3H]-EMPA. […]

For the next assay, the target named is rat orexin 1 receptor (Rattus norvegicus, UniProt P56718). Nature of the assay: Rat orexin 1 receptor radioligand binding (competitive). The settings on record: HEK293 cells stably expressing rat orexin 1 receptor; 4 nM radioligand; averages of 2-20 runs; read-out: rOX1 Ki. On the procedure:
as §1, §2

As to `Cc1ccc(-n2nccn2)c(C(=O)N2[C@H](C)[C@H]3C[C@@H](Oc4ccc(Cl)cn4)[C@@H]2C3)n1` [Example 122, [(1R,2R,4S,5R)-5-[(5-chloro-2-pyridyl)oxy]-2-methyl-3-azabicyclo[2.2.1]heptan-3-yl]-[6-methyl-3-(triazol-2-yl)-2-pyridyl]methanone], the values for the inhibition constant (Ki) at human orexin 2 receptor, at human orexin 1 receptor and at rat orexin 1 receptor were 452 nM, 3 nM and 3 nM, respectively.

Consider `[2H]C([2H])([2H])[C@]1([2H])[C@H]2C[C@@H](Oc3ccc(C(F)(F)F)cn3)[C@H](C2)N1C(=O)c1ccccc1-n1nccn1` [Example 163, [(1R,2R,4S,5R)-2-deuterio-2-(trideuteriomethyl)-5-[[5-(trifluoromethyl)-2-pyridyl]oxy]-3-azabicyclo[2.2.1]heptan-3-yl]-[2-(triazol-2-yl)phenyl]methanone], for which, on rat orexin 1 receptor, the inhibitory constant (Ki) was determined as 2 nM.
